JMJD2E inh – blocks human JMJD2E demethylase activity; JMJD2E catalytic domain, FDH-coupled NADH fluorescence (FDH is formaldehyde dehydrogenase); Potency, µM (doses to about 57.1 µM), for the others: at the highest dose activity change, negative = inhibition, most hits filed as inhibitors; 230,000 compounds, 1.6% hits; active = well fitted inhibition curve with a large enough effect, not every such curve was filed as active; inconclusive = small, poorly fitted or top-dose-only effect, or another doubt; inactive = no such curve, though single readings can be large or run the other way;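 note: potency is the fitted concentration of half-maximal effect; 0% = wells with enzyme and -100% = buffer wells without enzyme; nearly all actives have a fitted effect of over 50% in size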
LMNA splice mod – changes lamin A minigene splicing in HeLa cells | HeLa LMNA splicing GFP/RFP minigene ratio, 48 h | Potency, µM (titrated, usually from 46.1 µM), for inactives: top-dose ratio change, negative = inhibition, actives largely listed as inhibitors | 200,000 compounds, 0.01% hits | AID 1487; active = well fitted inhibition curve with a large enough effect in the signal ratio, with a control signal flat, not every such curve was filed as active; inconclusive = small, poorly fitted or top-dose-only effect, or effect the other way, or a change in a side signal; the % refers to the signal ratio; note: potency is the fitted concentration of half-maximal effect; % is set by controls: 0 for no effect and ±100 for the full control effect
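S3 HeLa stable clones carrying a lamin A-EGFP splicing minigene plus DsRed2 were seeded at 600 cells/well in Opti-MEM with 2% FBS, pin-dosed and incubated 48 h at 37°C. Acumen cytometry (488 nm) gave the GFP/RFP total-intensity ratio.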
ALDH1A1 block – ALDH1A1 (human) enzyme inhibition; 220,000 compounds, 7.3% hits; Purified ALDH1A1, NADH fluorescence, propionaldehyde substrate; P00352; Potency, µM (series often up to 75.3 µM), inactives show at the top dose activity, negative = inhibition, most hits filed as inhibitors; AID 1030; active = well fitted inhibition curve with a large enough effect, not every such curve was filed as active; inconclusive = small, poorly fitted or top-dose-only effect, or another doubt; inactive = no such curve, though single readings can be large or run the other way;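 note: potency is the fitted concentration of half-maximal effect; plate controls were no enzyme wells and a reference inhibitor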
miR-21 reporter – miR-21 reporter, rising signal. 340,000 tested, under 10 active. Potency, µM (highest dose often 38.3 µM), for the others: at the highest dose reporter change, positive = more light. HeLa miR-21 FLuc reporter, luciferase, 48 h. AID 2288; active = well fitted rising curve with a large enough effect; inconclusive = small, poorly fitted or top-dose-only effect; inactive = no such curve, though single readings can be large or run the other way;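 further: % of control where 0% means no effect; miR-21 action dims this reporter so a rising signal means less miR-21 action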
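HeLa cells endogenously expressing miR-21, stably carrying CMV-driven firefly luciferase with a downstream miR-21 binding site, 2000 cells/well. Titrations up to approximately 40 uM, 48 hours; luciferase luminescence read.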
Sfp PPTase inh – qHTS Assay for Inhibitors of Bacillus subtilis Sfp phosphopantetheinyl transferase (PPTase) | Biochemical Sfp PPTase activity, qHTS | Potency, µM, without a hit: max response, negative = inhibition, most hits filed as inhibitors | actives 3.5% (n = 310,000) | AID 1490, 2009 | 4'-phosphopantetheinyl transferase ffp (Bacillus subtilis), Q9F4F7; active = well fitted inhibition curve with a large enough effect; inconclusive = small, poorly fitted or top-dose-only effect, or another doubt; inactive = no such curve, though single readings can be large or run the other way;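 note: the enzyme is Sfp with the accession as filed and its product quenches rhodamine fluorescence; potency is the fitted concentration of half-maximal effect; 0% = enzyme reaction without inhibitor and -100% = no enzyme wells; top concentration of the series not given in the record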
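After 15 min at room temperature with compound, 15 nM Sfp received 5 uM rhodamine-CoA plus 12.5 uM BHQ-2-ybbR (50 mM Hepes pH 7.6, 10 mM MgCl2). Rate came from the fluorescence difference over 30 min, ex 525/em 598 nm.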
G9a inh – blocks human histone lysine methyltransferase G9a; G9a H3K9 monomethylation, AlphaScreen, 2 h; Potency, µM (top dose mostly 102 µM), inactives show at the top dose activity, negative = inhibition, most hits filed as inhibitors; 350,000 compounds, 8.8% hits; note: potency is the fitted concentration of half-maximal effect; % is set by controls: 0 for no effect and ±100 for the full control effect; nearly all actives have a fitted effect of over 75% in size
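Step 1: enzyme (final 20 nM) with compound, 15 min RT. Step 2: substrate peptide 500 nM and SAM 20 uM, 2 h RT. Step 3: anti-H3K9me1 antibody and AlphaScreen beads, 10 min, then plate read.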
Active calls of the source: *; ? = inconclusive; . = no result given; [ ] = remark or other dose. The list is not random: actives were taken first. Their share in the collection is about 13%. Unless noted, calls come from the whole dose curve; as a rule, active = well fitted curve in the direction sought with a large enough effect; inconclusive = small, poorly fitted or top-dose-only effect, or another doubt; inactive = no such curve, though single readings can be large; an effect the other way counts as inactive or inconclusive.

1) CCCN1C(=O)c2oc3cc(C)cc(C)c3c(=O)c2C1c1ccc(F)cc1 (stereo unspecified)
2) N#Cc1c2n(c(=S)n(-c3ccccn3)c1=O)CCCCC2
3) Cc1cc(C)c(-c2nc3ccccc3s2)[nH]1
4) COc1ccc(/C=C2\SC(=NCc3ccccc3)NC2=O)cc1
5) Cc1ccc(C)c(C2=NNC(=NCc3ccccc3)SC2)c1
6) COc1cccc(CN=C2Nc3ccccc3CS2)c1

screen / no.	1	2	3	4	5	6
miR-21 reporter	-4%	-16%	-53%	2%	12%	-69%
LMNA splice mod	.	-6%	.	-8%	-6%[46 µM]	0%[46 µM]
Sfp PPTase inh	.	12%	-3%	8%	-108%	2%
G9a inh	6%[59 µM]	22µM*	50µM*	17%[59 µM]	35µM*	-2%
ALDH1A1 block	.	-11%	.	-8%	18µM*	-5%
JMJD2E inh	.	-9%	.	0%	-10%	1%

7) COc1ccc(CN=C2NN=C(c3ccccc3)CS2)cc1
8) COc1ccc(CN=C2NN=C(c3cccc(OC)c3)CS2)cc1
9) COc1cccc(C2=NNC(=NCc3ccccc3)SC2)c1
10) COc1cc(OC)c(Nc2cc(C)nc3ncnn23)cc1Cl
11) Cc1cc(Nc2ccc3ccccc3c2)n2ncnc2n1
12) CCOC(=O)c1ccc(Nc2cc(C)nc3ncnn23)cc1

screen / no.	7	8	9	10	11	12
miR-21 reporter	-5%	-36%	-23%	-9%	-36%	-15%
LMNA splice mod	7%[9.22 µM]	?	.	.	2%	-10%
Sfp PPTase inh	45µM*	?	-21%	.	-11%	-15%
G9a inh	35µM*	?	45µM*	11µM*	16µM*	-18%[59 µM]
ALDH1A1 block	4.5µM*	8.9µM*	?	.	?	10µM*
JMJD2E inh	?	-1%	?	.	-23%	-23%

13) COc1cc(OC)c(Nc2cc(C)nc3nc(C)nn23)cc1Cl
14) S=c1[nH]nc(-c2ccncc2)n1/N=C/c1ccccc1
15) CC(=C/c1ccccc1)/C=N/n1c(-c2ccncc2)n[nH]c1=S
16) Cc1ccc(/C=N/n2c(C)n[nH]c2=S)o1
17) Cc1cccc(/C=N/n2c(-c3ccncc3)n[nH]c2=S)c1
18) Cc1ccc(/C=N/n2c(-c3ccncc3)n[nH]c2=S)o1

screen / no.	13	14	15	16	17	18
miR-21 reporter	-8%	-5%	25%	-1%	-6%	2%
LMNA splice mod	-6%	-12%	-25%[46 µM]	12%	?	8%[46 µM]
Sfp PPTase inh	4%	-7%	-22%	-12%	?	25µM*
G9a inh	?	1.3µM*	-119%	?	1µM*	.
ALDH1A1 block	5%	?	?	16%	-13%	-8%
JMJD2E inh	-5%	0%	?	14%	?	-23%

Three compounds drawn at random from the list so far:
11) Cc1cc(Nc2ccc3ccccc3c2)n2ncnc2n1
8) COc1ccc(CN=C2NN=C(c3cccc(OC)c3)CS2)cc1
1) CCCN1C(=O)c2oc3cc(C)cc(C)c3c(=O)c2C1c1ccc(F)cc1 (stereo unspecified)

screen / no.	11	8	1
miR-21 reporter	-36%	-36%	-4%
LMNA splice mod	2%	?	.
Sfp PPTase inh	-11%	?	.
G9a inh	16µM*	?	6%[59 µM]
ALDH1A1 block	?	8.9µM*	.
JMJD2E inh	-23%	-1%	.

Additional entries:
19) CN1CCN(S(=O)(=O)c2ccc(NC(=O)c3ccc(F)cc3Cl)cc2)CC1
20) CSc1ccccc1OCc1cc(C(=O)N(C)Cc2ccncn2)no1
21) CN(CC(=O)Nc1ccc(Cl)c(Cl)c1)C(=O)CC1OC(=O)c2ccccc21 (stereo unspecified)
22) O=C(Cn1c2c(sc1=O)C1c3ccccc3OCC1CS2)Nc1ccc(Cl)c(Cl)c1 (stereo unspecified)
23) On1cnnc1-c1ccccc1
24) COn1cnnc1-c1ccccc1

screen / no.	19	20	21	22	23	24
miR-21 reporter	-5%	-68%	.	5%	0%	-3%
LMNA splice mod	.	.	.	?	0%	24%
Sfp PPTase inh	3%	3%	.	8%	-22%	-10%
G9a inh	.	-3%	11%[59 µM]	?	-12%	13µM*
ALDH1A1 block	.	.	.	25µM*	3%	?
JMJD2E inh	.	.	.	4%	-6%	-6%

25) CCOC(=O)CC1Sc2ccccc2NC1=S (stereo unspecified)
26) CCOC(=O)CC1Sc2ccccc2NC1=O (stereo unspecified)
27) CCOC(=O)C1Sc2ccccc2NC1=O (stereo unspecified)
28) COC(=O)COc1ccc(S(=O)(=O)Nc2cc(OC)ccc2OC)cc1
29) CCOC(=O)c1cc(S(=O)(=O)Nc2cc(OC)ccc2OC)[nH]n1
30) CCOC(=O)c1cc(S(=O)(=O)Nc2cc(C)c(Cl)cc2OC)[nH]n1

screen / no.	25	26	27	28	29	30
miR-21 reporter	-4%	-5%	-1%	1%	12%	-5%
LMNA splice mod	1%[46 µM]	10%	.	7%	5%[46 µM]	-9%[46 µM]
Sfp PPTase inh	40µM*	?	6%	-9%	.	.
G9a inh	45µM*	10µM*	14%	-27%[2.33 µM]	11µM*	14µM*
ALDH1A1 block	7.9µM*	1%	8%	5%	.	.
JMJD2E inh	-25%	0%	?	-6%	.	.

31) CCOC(=O)Nc1cc(C)c(Cl)cc1OC
32) Cc1ccc(NC(=O)CN(C)C(=O)c2cc(S(=O)(=O)N(C)C)ccc2N2CCCC2)cc1
33) COc1ccc(CNC(=O)COC(=O)c2cc(-c3ccco3)nc3ccccc23)cc1
34) COc1ccc(CNC(=O)COC(=O)c2ccccc2C(=O)c2ccccc2)cc1
35) CCNC(=O)COC(=O)c1cc(-c2ccco2)nc2ccccc12
36) COc1ccccc1CNC(=O)Cn1c(=O)ccc2cc(S(=O)(=O)N3CCCC3)ccc21

screen / no.	31	32	33	34	35	36
miR-21 reporter	-1%	.	2%	5%	-1%	1%
LMNA splice mod	5%	.	24%	-26%[46 µM]	9%[46 µM]	-12%[46 µM]
Sfp PPTase inh	10%	.	?	16%	16µM*	.
G9a inh	19%[59 µM]	-30%	10µM*	10%	40µM*	16%[59 µM]
ALDH1A1 block	5%	.	?	?	?	.
JMJD2E inh	-9%	.	?	-9%	?	.

37) Cn1c(NNC(=O)C(c2ccccc2)c2ccccc2)cc(=O)n(C)c1=O
38) O=C(CNc1cccc(S(=O)(=O)N2CCOCC2)c1)N1CCc2ccccc21
39) O=C(Nc1cccc(S(=O)(=O)N2CCOCC2)c1)c1cc2c(s1)CCC2
40) O=C(Nc1cc(S(=O)(=O)N2CCOCC2)ccc1N1CCOCC1)c1cc2c(s1)CCC2
41) O=C(c1cccc(S(=O)(=O)N2CCOCC2)c1)N1CCCc2ccccc21
42) CC1CCc2sc(C(=O)NCC(C)(C)N3CCOCC3)cc2C1 (stereo unspecified)

screen / no.	37	38	39	40	41	42
miR-21 reporter	7%	-16%	-3%	3%	-4%	.
LMNA splice mod	-12%[46 µM]	.	-21%	.	-1%	.
Sfp PPTase inh	18%	11%	-2%	7%	11%	.
G9a inh	-33%	40µM*	-44%	.	11%[12.7 µM]	1%
ALDH1A1 block	7%	.	3.2µM*	.	-1%	.
JMJD2E inh	5%	1%	-8%	?	-4%	.

43) COc1ccc(S(=O)(=O)N2CCOCC2)cc1NC(=O)c1cc2c(s1)CCCC2
44) CC1CCc2sc(C(=O)Nc3ccc(N4CCOCC4)cc3)cc2C1 (stereo unspecified)
45) O=C(Nc1ccccn1)c1cccc(S(=O)(=O)N2CCCC2)c1
46) COc1ccc(NC(=O)c2cc3c(s2)CCC3)cc1S(=O)(=O)N1CCOCC1
47) C=CCn1c(SCc2csc(-c3ccc(C)cc3)n2)nnc1-c1ccccc1OC
48) COc1ccccc1-n1cnnc1SCc1csc(-c2ccccc2)n1
49) COc1cccc(-c2nc(NC3CCNCC3)c3ccccc3n2)c1
50) CN(C)c1ccc(-c2nc(NC3CCNCC3)c3ccccc3n2)cc1

screen / no.	43	44	45	46	47	48	49	50
miR-21 reporter	-10%	-3%	-4%	10%	23%	-2%	.	.
LMNA splice mod	?	?	.	?	?	-19%	?	?
Sfp PPTase inh	-11%	0%	8%	2%	?	-5%	-23%	-23%
G9a inh	-7%	32µM*	-5%	?	32µM*	-2%[59 µM]	14%[0.501 µM]	.
ALDH1A1 block	4µM*	-1%	.	0.56µM*	2%	?	32µM*	-5%
JMJD2E inh	-2%	-11%	.	-3%	-4%	-1%	.	?

Compound activity as filed in PubChem.
